Literature values as cited in patent US20260355144A1, “METAP2 INHIBITORS FOR THE TREATMENT OF PULMONARY FIBROSIS” (SynDevRx , Inc., priority 2022, published 2026).

Settings: HER2-positive metastatic breast cancer; certain patients; cited from earlier work

Enhertu: antibody-drug conjugate used to treat HER2-positive metastatic breast cancer
induction of ILD: shown to induce ILD, including pneumonitis
